Target: T1, full-length B-Catenin (Uniprot ID P35222) (Homo sapiens, UniProt P35222)
T1 construct: 10 nM full-length B-Catenin (Uniprot ID P35222)
Test: biochemical
Type: binding
Conditions: beta-Catenin FP IC50 (nM), competition fluorescence polarization

Sequences of proteins named here, by UniProt entry; tags and fusion partners are left off.
UniProt P35222, whole entry: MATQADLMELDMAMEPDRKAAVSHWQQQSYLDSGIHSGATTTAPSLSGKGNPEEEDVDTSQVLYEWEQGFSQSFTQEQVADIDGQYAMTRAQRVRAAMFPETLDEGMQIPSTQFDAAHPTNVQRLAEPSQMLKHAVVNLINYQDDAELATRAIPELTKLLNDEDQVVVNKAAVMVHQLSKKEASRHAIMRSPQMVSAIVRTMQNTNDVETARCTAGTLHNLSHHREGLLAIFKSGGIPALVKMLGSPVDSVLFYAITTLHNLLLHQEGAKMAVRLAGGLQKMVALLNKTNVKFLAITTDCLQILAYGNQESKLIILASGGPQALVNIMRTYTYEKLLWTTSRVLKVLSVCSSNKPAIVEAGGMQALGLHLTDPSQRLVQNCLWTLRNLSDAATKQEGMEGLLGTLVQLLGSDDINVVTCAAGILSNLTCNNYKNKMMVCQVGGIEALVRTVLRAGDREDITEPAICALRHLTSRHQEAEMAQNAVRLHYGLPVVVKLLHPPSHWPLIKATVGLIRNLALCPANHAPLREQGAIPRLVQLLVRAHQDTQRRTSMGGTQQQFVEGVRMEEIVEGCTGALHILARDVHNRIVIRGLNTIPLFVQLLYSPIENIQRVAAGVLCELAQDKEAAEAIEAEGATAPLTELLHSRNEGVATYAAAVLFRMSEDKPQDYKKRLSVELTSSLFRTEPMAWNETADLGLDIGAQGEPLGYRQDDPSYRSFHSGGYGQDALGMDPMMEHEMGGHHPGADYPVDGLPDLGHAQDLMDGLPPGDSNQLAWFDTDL

| IC50 | SMILES |
| --- | --- |
| > 1000 nM | CC(=O)N1CCC[C@]12CC=CCCCC1(CCCC=CCCCOC(=O)N3CC[C@@]4(C3)NC(=O)[C@H](CCCCNC(=O)CC[C@@H](C(=O)N[C@@H](C)C(N)=O)NC(=O)[C@H](Cc3csc5ccccc35)NC(=O)[C@H](Cc3ccsc3)NC4=O)NC(=O)C3(Cc4ccccc4C3)NC(=O)[C@H](C)NC(=O)C(C)(C)NC(=O)[C@H](Cc3cccc(C(=O)O)c3)NC(=O)[C@H](CC(=O)O)NC1=O)NC(=O)[C@H](CC(C)(C)C)NC(=O)[C@H](CC(=O)O)NC2=O (single isomer, unassigned) [I-592, Ac-PL3-Asp-Npg-B5-Asp-3COOHF-Aib-Ala-Aic-Lys*3-PyrS2-3Thi-BztA-GlnR*3-Ala-NH2] |
| 200 to 750 nM | CC(=O)N1CCC[C@]12CC=CCCCC1(CCCC=CCCCOC(=O)N3CC[C@@]4(C3)NC(=O)[C@H](CCCCNC(=O)CC[C@@H](C(=O)N[C@@H](C)C(N)=O)NC(=O)[C@H](Cc3csc5ccccc35)NC(=O)[C@H](Cc3ccsc3)NC4=O)NC(=O)[C@H](Cc3ccccc3)NC(=O)[C@H](C)NC(=O)C(C)(C)NC(=O)[C@H](Cc3cccc(C(=O)O)c3)NC(=O)[C@H](CC(=O)O)NC1=O)NC(=O)[C@H](CC(C)(C)C)NC(=O)[C@H](CCC(=O)O)NC2=O (single isomer, unassigned) [I-544, Ac-PL3-Glu-Npg-B5-Asp-3COOHF-Aib-Ala-Phe-Lys*3-PyrS2-3Thi-BztA-GlnR*3-Ala-NH2] |
| > 1000 nM | CC(=O)N1CCC[C@]12CC=CCCCC1(CCCC=CCCCOC(=O)N3CC[C@@]4(C3)NC(=O)[C@H](CCCCNC(=O)CC[C@@H](C(=O)N[C@@H](C)C(N)=O)NC(=O)[C@H](Cc3csc5ccccc35)NC(=O)[C@H](Cc3ccsc3)NC4=O)NC(=O)[C@H](C3CCCCC3)NC(=O)[C@H](C)NC(=O)C(C)(C)NC(=O)[C@H](Cc3cccc(C(=O)O)c3)NC(=O)[C@H](CC(=O)O)NC1=O)NC(=O)[C@H](CC(C)(C)C)NC(=O)[C@H](CC(=O)O)NC2=O (relative stereo) [I-366, Ac-PL3-Asp-Npg-B5-Asp-3COOHF-Aib-Ala-Chg-Lys*3-PyrS2-3Thi-BztA-GlnR*3-Ala-NH2] |
| 200 to 750 nM | CC(=O)N1CCC[C@]12CC=CCCCC1(CCCC=CCCCOC(=O)N3CC[C@@]4(C3)NC(=O)[C@H](CCCCNC(=O)CC[C@@H](C(=O)N[C@@H](C)C(N)=O)NC(=O)[C@H](Cc3csc5ccccc35)NC(=O)[C@H](Cc3ccsc3)NC4=O)NC(=O)[C@H](Cc3ccccc3)NC(=O)[C@H](C)NC(=O)[C@H](CCC(N)=O)NC(=O)[C@H](Cc3cccc(C(=O)O)c3)NC(=O)[C@H](CCO)NC1=O)NC(=O)[C@H](CC(C)(C)C)NC(=O)[C@H](CC(=O)O)NC2=O (relative stereo) [I-91, Ac-PL3-Asp-Npg-B5-Hse-3COOHF-Gln-Ala-Phe-Lys*3-PyrS2-3Thi-BztA-GlnR*3-Ala-NH2] |
| 200 to 750 nM | CC(=O)N1CCC[C@]12CC=CCCCC1(CCCC=CCCCOC(=O)N3CC[C@@]4(C3)NC(=O)[C@H](CCCCNC(=O)CC[C@@H](C(=O)N[C@@H](C)C(N)=O)NC(=O)[C@H](Cc3csc5ccccc35)NC(=O)[C@H](Cc3ccccc3C(F)(F)F)NC4=O)NC(=O)[C@H](Cc3ccccc3)NC(=O)[C@H](C)NC(=O)C(C)(C)NC(=O)[C@H](CC(C)C)NC(=O)[C@H](CC(=O)O)NC1=O)NC(=O)[C@H](CC(C)(C)C)NC(=O)[C@H](CC(=O)O)NC2=O (relative stereo) [I-219, Ac-PL3-Asp-Npg-B5-Asp-Leu-Aib-Ala-Phe-Lys*3-PyrS2-2F3MeF-BztA-GlnR*3-Ala-NH2] |
| 750 to 1000 nM | CC(=O)N1CCC[C@]12CC=CCCCC1(CCCC=CCCCOC(=O)N3CC[C@@]4(C3)NC(=O)[C@H](CCCCNC(=O)CC[C@@H](C(=O)N[C@@H](CC(C)C)C(=O)N[C@@H](CO)C(N)=O)NC(=O)[C@H](Cc3csc5ccccc35)NC(=O)[C@H](Cc3ccccc3C(F)(F)F)NC4=O)NC(=O)[C@H](Cc3ccccc3)NC(=O)[C@H](C)NC(=O)C(C)(C)NC(=O)[C@H](Cc3cccc(C(=O)O)c3)NC(=O)[C@H](CC(=O)O)NC1=O)NC(=O)[C@H](CC(C)(C)C)NC(=O)[C@H](CCO)NC2=O (relative stereo) [I-147, Ac-PL3-Hse-Npg-B5-Asp-3COOHF-Aib-Ala-Phe-Lys*3-PyrS2-2F3MeF-BztA-GlnR*3-Leu-Ser-NH2] |
